Laboratory results as given in patent US20260384421A1, “NOVEL COMPOUNDS THAT CAN BE USED AS THERAPEUTIC AGENTS” (published 2026).
Read-outs that look alike come from different tables or passages of the source.

What was measured:
MDA-MB-231 cells = assay: alamarBlue proliferation assay with MDA-MB-231 cells (glucose-free Leibovitz's L-15 medium)
TANQUE cells = assay: alamarBlue proliferation assay with TANQUE cells; settings: read-out: Activity on TANOUE: IC50, RPMI 1640 medium, 10% FBS
NB-4 cells = assay: alamarBlue proliferation assay with NB-4 cells; settings: read-out: Activity on NB-4: IC50, RPMI 1640 medium, 10% FBS
HCT-116 cells = assay: alamarBlue proliferation assay with HCT-116 cells; settings: read-out: Activity on HCT-116: IC50, McCoy's 5A medium, 10% FBS
BHY cells = assay: alamarBlue proliferation assay with BHY cells; settings: read-out: Activity on BHY: IC50, DMEM medium, 10% FBS
A-549 cells = assay: alamarBlue proliferation assay with A-549 cells; settings: read-out: Activity on A-549: IC50, DMEM medium, 10% FBS
LL/2 cells = assay: alamarBlue proliferation assay with LL/2 cells; settings: read-out: Activity on LL/2: IC50; LL/2 murine Lewis lung carcinoma cells, DMEM medium, 10% FBS
[1] = read-out: Activity (MDA), MDA-MB-231 cells, antiproliferative activity, class by IC50
[2] = read-out: Activity on MDA-MB-231 (IC50), glucose-free Leibovitz's L-15, 10% FBS, day 5, alamarBlue
[3] = read-out: Activity (MDA): antiproliferative activity on MDA-MB-231 cells, IC50 category, MDA-MB-231 cells cultivated in glucose-free Leibovitz's L-15 medium

SMILES | IC50 (MDA-MB-231 cells; [1]) | IC50 (MDA-MB-231 cells; [2]) | IC50 (TANQUE cells) | IC50 (NB-4 cells) | IC50 (HCT-116 cells) | IC50 (BHY cells) | IC50 (A-549 cells) | IC50 (LL/2 cells) | IC50 (MDA-MB-231 cells; [3])
COC1CCC(c2ccc(Oc3ccc(C(=O)N4CCN(Cc5ccccc5)CC4)nc3)c(CO)c2)CC1 (stereo not shown) | < 1 µM | ≤ 0.2 µM | ≤ 0.2 µM | ≤ 0.2 µM | ≤ 0.2 µM | ≤ 0.2 µM | ≤ 0.2 µM | ≤ 5 µM | 
COC(=O)c1ccc(CN2CCN(C(=O)c3ccc(Oc4ccc(C5CCC6(CC5)OCCO6)cc4CO)cc3)CC2)cc1 | < 1 µM | ≤ 0.2 µM | ≤ 0.2 µM | ≤ 0.2 µM | ≤ 0.2 µM | ≤ 0.2 µM | ≤ 0.2 µM | ≤ 0.2 µM | 
O=C(c1ccc(Oc2ccc(C3CCC4(CC3)OCCO4)cc2CO)cc1)N1CCCN(Cc2ccc(Cl)cc2)CC1 |  | ≤ 0.2 µM | ≤ 0.2 µM | ≤ 0.2 µM | ≤ 0.2 µM | ≤ 0.2 µM | ≤ 0.2 µM | ≤ 0.2 µM | < 1 µM
COc1ccc(CN2CCN(C(=O)c3ccc(Oc4ccc(C5CCCCC5)cc4CO)cn3)CC2)cc1 | < 1 µM | ≤ 0.2 µM | ≤ 0.2 µM | ≤ 0.2 µM | ≤ 0.2 µM | ≤ 0.2 µM | ≤ 0.2 µM | ≤ 5 µM | 
COc1ccc(CN2CCN(C(=O)c3ccc(Oc4ccc(C5CCC(OC)CC5)cc4)cc3)CC2)cc1 (stereo not shown) | < 1 µM | ≤ 0.2 µM | ≤ 0.2 µM | ≤ 0.2 µM | ≤ 0.2 µM | ≤ 1 µM | ≤ 0.2 µM | ≤ 5 µM | 
COC1CCC(c2ccc(Oc3ccc(C(=O)N4CCN(Cc5ccc(C(F)(F)F)cc5)CC4)nc3)c(CO)c2)CC1 (stereo not shown) | < 1 µM | ≤ 0.2 µM | ≤ 0.2 µM | ≤ 0.2 µM | ≤ 0.2 µM | ≤ 0.2 µM | ≤ 0.2 µM | ≤ 0.2 µM | 
COCC1(COC)CCC(c2ccc(Oc3ccc(C(=O)N4CCN(Cc5ccc(Cl)cc5)CC4)cc3)c(CO)c2)CC1 | < 1 µM | ≤ 0.2 µM | ≤ 0.2 µM | ≤ 0.2 µM | ≤ 0.2 µM | ≤ 0.2 µM | ≤ 0.2 µM | ≤ 0.2 µM | 
COC1CCC(c2ccc(Oc3ccc(C(=O)N4CCN(Cc5ccc(C(F)(F)F)nc5)CC4)cc3)c(CO)c2)CC1 (stereo not shown) | < 1 µM | ≤ 0.2 µM | ≤ 0.2 µM | ≤ 0.2 µM | ≤ 0.2 µM | ≤ 0.2 µM | ≤ 0.2 µM | ≤ 0.2 µM | 
O=C(c1ccc(Oc2ccc(C3CCC4(CC3)OCCO4)cc2CO)cc1)N1CCN(Cc2ccsc2)CC1 |  | ≤ 0.2 µM | ≤ 0.2 µM | ≤ 0.2 µM | ≤ 0.2 µM | ≤ 0.2 µM | ≤ 0.2 µM | ≤ 5 µM | < 1 µM
O=C(c1ccc(Oc2ccc(C3CCC4(CC3)OCCO4)cc2CO)cc1)N1CCN(Cc2ccc([N+](=O)[O-])cc2)CC1 |  | ≤ 0.2 µM | ≤ 0.2 µM | ≤ 0.2 µM | ≤ 0.2 µM | ≤ 0.2 µM | ≤ 0.2 µM | ≤ 0.2 µM | 
Cn1c(CN2CCN(C(=O)c3ccc(Oc4ccc(C5CCC6(CC5)OCCO6)cc4CO)cc3)CC2)cc2ccccc21 |  | ≤ 0.2 µM | ≤ 0.2 µM | ≤ 0.2 µM | ≤ 0.2 µM | ≤ 0.2 µM | ≤ 0.2 µM | ≤ 0.2 µM | < 1 µM
CS(=O)(=O)c1ccc(CN2CCN(C(=O)c3ccc(Oc4ccc(C5CCC6(CC5)OCCO6)cc4CO)cc3)CC2)cc1 |  | ≤ 0.2 µM | ≤ 0.2 µM | ≤ 0.2 µM | ≤ 0.2 µM | ≤ 0.2 µM | ≤ 0.2 µM | ≤ 1 µM | < 1 µM
O=Cc1cc(C2CCC3(CC2)SCCCS3)ccc1Oc1ccc(C(=O)N2CCN(Cc3ccc(Cl)cc3)CC2)nc1 |  | ≤ 0.2 µM | ≤ 0.2 µM | ≤ 0.2 µM | ≤ 0.2 µM | ≤ 0.2 µM | ≤ 0.2 µM | ≤ 0.2 µM | 
COCC1(COC)CCC(c2ccc(Oc3ccc(C(=O)N4CCN(Cc5ccc(OC)cc5)CC4)cc3)c(CO)c2)CC1 | < 1 µM | ≤ 0.2 µM | ≤ 0.2 µM | ≤ 0.2 µM | ≤ 0.2 µM | ≤ 0.2 µM | ≤ 0.2 µM | ≤ 0.2 µM | 
O=C(c1ccc(Oc2ccc(C3CCC4(CC3)OCCO4)cc2CO)cc1)N1CCN(Cc2ccc(Cl)cc2)CC1 |  | ≤ 0.2 µM | ≤ 0.2 µM | ≤ 0.2 µM | ≤ 0.2 µM | ≤ 0.2 µM | ≤ 0.2 µM | ≤ 0.2 µM | < 1 µM
COc1ccc(CN2CCN(C(=O)c3ccc(Oc4ccc(C5CCC6(CC5)SCCCS6)cc4CO)cn3)CC2)cc1 | < 1 µM | ≤ 0.2 µM | ≤ 0.2 µM | ≤ 0.2 µM | ≤ 0.2 µM | ≤ 0.2 µM | ≤ 0.2 µM | ≤ 1 µM | 
CN(C)S(=O)(=O)c1ccc(CN2CCN(C(=O)c3ccc(Oc4ccc(C5CCC6(CC5)OCCO6)cc4CO)cc3)CC2)cc1 |  | ≤ 0.2 µM | ≤ 0.2 µM | ≤ 0.2 µM | ≤ 0.2 µM | ≤ 0.2 µM | ≤ 0.2 µM | ≤ 0.2 µM | < 1 µM
COc1ccc(CN2CCN(C(=O)c3ccc(Oc4ccc(C5CCC6(CC5)OCCO6)cc4CO)cc3)CC2)cn1 |  | ≤ 0.2 µM | ≤ 0.2 µM | ≤ 0.2 µM | ≤ 0.2 µM | ≤ 0.2 µM | ≤ 0.2 µM | ≤ 1 µM | < 1 µM
COC1CCC(c2ccc(Oc3ccc(C(=O)N4CCN(Cc5ccc6ccccc6c5)CC4)nc3)c(CO)c2)CC1 (stereo not shown) | < 1 µM | ≤ 0.2 µM | ≤ 0.2 µM | ≤ 0.2 µM | ≤ 0.2 µM | ≤ 0.2 µM | ≤ 0.2 µM | ≤ 0.2 µM | 
COc1ccc(CN2CCN(C(=O)c3ccc(Oc4ccc(C5CCC(OC)CC5)cc4CO)cc3)CC2)cc1 (stereo not shown) | < 1 µM | ≤ 0.2 µM | ≤ 0.2 µM | ≤ 0.2 µM | ≤ 0.2 µM | ≤ 0.2 µM | ≤ 0.2 µM | ≤ 0.2 µM | 
O=C(c1ccc(Oc2ccc(C3CCC4(CC3)OCCO4)cc2CO)cn1)N1CCN(Cc2ccccc2)CC1 |  | ≤ 0.2 µM | ≤ 0.2 µM | ≤ 0.2 µM | ≤ 0.2 µM | ≤ 0.2 µM | ≤ 0.2 µM | ≤ 5 µM | < 1 µM
O=C(c1ccc(Oc2ccc(C3CCC4(CC3)SCCS4)cc2CO)cn1)N1CCN(Cc2ccc(Cl)cc2)CC1 | < 1 µM | ≤ 0.2 µM | ≤ 0.2 µM | ≤ 0.2 µM | ≤ 0.2 µM | ≤ 0.2 µM | ≤ 0.2 µM | ≤ 1 µM | 
O=C(c1ccc(Oc2ccc(C3CCC4(CC3)OCCO4)cc2CO)cc1)N1CCN(Cc2ccc(Cl)cn2)CC1 |  | ≤ 0.2 µM | ≤ 0.2 µM | ≤ 0.2 µM | ≤ 0.2 µM | ≤ 0.2 µM | ≤ 0.2 µM | ≤ 1 µM | < 1 µM
O=C(c1ccc(Oc2ccc(C3CCC4(CC3)OCCO4)cc2CO)cc1)N1CCN(Cc2ccc(C(F)(F)F)nc2)CC1 |  | ≤ 0.2 µM | ≤ 0.2 µM | ≤ 0.2 µM | ≤ 0.2 µM | ≤ 0.2 µM | ≤ 0.2 µM | ≤ 0.2 µM | < 1 µM
